{"source": "PubChem BioAssay AID2825", "about": "(Sanford-Burnham Center for Chemical Genomics, 2010)", "note": "This is a selection; strong and weak results do not stand in their true shares. Some results for these compounds are left out of this collection, so the calls shown say nothing about other tests. Activity calls are given as the source filed them.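 Rule for the calls: active = inhibition of 50% or more; inactive = inhibition below 50%.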"}
{"test": "blockers of yeast NLRP3/ASC/caspase-1 reporter – luminescence, uHTS, primary screen (AID 2825);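 note: plate controls were induced DMSO wells for no effect and uninduced yeast grown without galactose for full effect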", "details": "Yeast reconstituted NLRP3/ASC/caspase-1, beta-gal luminescence, 24 h; at 10 µM; stronger effect = higher value"}
{"smiles": "O=C(OC1CN2CCC1CC2)C(CO)(c1ccccc1)c1ccccc1", "note": "(centres undefined)", "inhibition": "inactive: 2.34%"}
{"smiles": "CN(C)c1cccc(C(=O)NCC2(N(C)C)CCCCC2)c1", "inhibition": "inactive: 2.68%"}
{"smiles": "CC(C)Oc1ccc(C(=O)NCC2(N(C)C)CCCCC2)cc1", "inhibition": "inactive: 9.97%"}
{"smiles": "COc1ccc(Br)c(C(=O)NCC2(N3CCCCC3)CCCCC2)c1", "inhibition": "inactive: 7.59%"}
{"smiles": "COc1cc(C(=O)NCC2(N(C)C)CCCCC2)c([N+](=O)[O-])cc1OC", "inhibition": "inactive: 0.767%"}
{"smiles": "CN(C)C1(CNC(=O)c2ccc(Br)cc2)CCCCC1", "inhibition": "inactive: 11.4%"}
{"smiles": "O=C(NCC1(N2CCCCC2)CCCCC1)c1cccc(Cl)c1", "inhibition": "inactive: 19%"}
{"smiles": "COc1cccc(C(=O)NCC2(N3CCCCC3)CCCCC2)c1", "inhibition": "inactive: -4.17%"}
{"smiles": "COc1ccc(Cl)cc1C(=O)NCC1(N(C)C)CCCCC1", "inhibition": "inactive: 5.25%"}
{"smiles": "Cc1ccccc1C(=O)NCC1(N2CCCCC2)CCCCC1", "inhibition": "inactive: 15.8%"}
{"smiles": "CN(C)C1CCCC1OC(=O)C(O)(c1ccccc1)c1ccccc1", "note": "(centres undefined)", "inhibition": "inactive: -9.23%"}
{"smiles": "CN(C)c1ccc(C(=O)NCC2(N(C)C)CCCCC2)cc1", "inhibition": "inactive: 2.82%"}
{"smiles": "Cc1cc(C(=O)NCC2(N3CCCCC3)CCCCC2)ccc1[N+](=O)[O-]", "inhibition": "inactive: 24.3%"}
{"smiles": "CCN1CCCC(OC(=O)C2(O)c3ccccc3C=Cc3ccccc32)C1", "note": "(centres undefined)", "inhibition": "inactive: 11.2%"}
{"smiles": "O=C(NCC1(N2CCCCC2)CCCCC1)c1cccc(Br)c1", "inhibition": "inactive: 2.54%"}
{"smiles": "COc1ccc(C(=O)NCC2(N(C)C)CCCCC2)cc1", "inhibition": "inactive: 6.27%"}
{"smiles": "C=CCN1CCN(CCOC(=O)C(O)(c2ccccc2)c2ccccc2)CC1", "inhibition": "inactive: -2.02%"}
{"smiles": "O=C(NCC1(N2CCCCC2)CCCCC1)c1cc(F)c(F)cc1Cl", "inhibition": "inactive: 15.1%"}
{"smiles": "CN1[C@@H]2CC[C@H]1CC(OC(=O)C(O)(c1ccccc1)c1ccccc1)C2", "note": "(some centres undefined)", "inhibition": "inactive: 18.5%"}
{"smiles": "O=C(NCC1(N2CCCCC2)CCCCC1)c1cc([N+](=O)[O-])ccc1Cl", "inhibition": "inactive: -5.32%"}
{"smiles": "Cc1ccc(C(=O)NCC2(N3CCCCC3)CCCCC2)cc1", "inhibition": "inactive: 0.601%"}
{"smiles": "CC(C)N1C(=O)CC2(CCN(CCOC(=O)C(O)(c3ccccc3)c3ccccc3)CC2)C1=O", "inhibition": "inactive: 18.3%"}
{"smiles": "CCN(CC)CC(C)C(C)OC(=O)C(O)(c1ccccc1)c1ccccc1", "note": "(centres undefined)", "inhibition": "inactive: 9.21%"}
{"smiles": "COc1cc(SC)ccc1C(=O)NCC1(N(C)C)CCCCC1", "inhibition": "inactive: 3.51%"}
